Experimental data as given in PubChem BioAssay AID588473 (Sanford-Burnham Center for Chemical Genomics, 2011).
The list shows a part of the results, in another mix than the full data. The source made the active and inactive calls.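 Rule for the calls: active = activation of at least 50%, plus an integration ratio under a set limit after plate pattern correction; inactive = the rest.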

These molecules were tested on CRF-binding protein / CRF receptor 2 complex (human) (assay: activators of CRF-R2 with CRF-BP – cell-based, HEK293, calcium dye fluorescence, uHTS, primary screen (AID 588473;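 note: plate controls were neutral control wells without compound for no effect and CRF at EC100 for full effect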)). Settings: calcium dye fluorescence (FLIPR), at 13.2 µM, stronger effect = higher value, percent of saturating CRF peptide response.

For Cc1c2c(nc3ccccc13)SC(C(Cl)Cl)C2 (stereo not drawn), which activation is on record?
The activation was inactive: 0.38%.

How did the activation turn out when Cc1cc(=O)[nH]c(N[N+](=O)[O-])n1 was run?
The activation was inactive: 0.63%.

O=C(OC1CN2CCC1CC2)C12CC3CC(CC(C3)C1)C2 (stereo not drawn) was tested. Which activation did it give?
Its activation is inactive: 9.85%.

For O=P1(N(CCCl)CCCl)OCCCN1CCCl (stereo not drawn), which activation is on record?
The activation was inactive: 0.04%.

O=P1(N(CCCl)CCCl)Nc2ccccc2N1 was tested. Which activation did it give?
The activation was inactive: 6.32%.

How did the activation turn out when COc1cc(I)ccc1[As](=O)(O)O was run?
The activation was inactive: -0.65%.

COc1ccc2nc(NP(=O)(c3ccccc3)c3ccccc3)sc2c1 was tested. Which activation did it give?
The activation was inactive: -1.29%.

CSc1ccc(Nc2c([N+](=O)[O-])cc([N+](=O)[O-])cc2[N+](=O)[O-])cc1 was tested. Which activation did it give?
The activation was inactive: 40.1%.

How did the activation turn out when O=C(OC1CN2CCC1CC2)c1cccc([N+](=O)[O-])c1 (stereo not drawn) was run?
Its activation is inactive: 0.22%.

How did the activation turn out when CCOC(=O)c1ccc(NC(=O)C(C)(CCl)SC)cc1 (stereo not drawn) was run?
Its activation is inactive: -1.39%.

For CCC(C)N(CC(C)C)C(=S)SC(NC(C)=O)C(Cl)(Cl)Cl (stereo not drawn), which activation is on record?
Its activation is inactive: -2.39%.

For COP1(=S)c2c(C)nn(CCC#N)c2N=C(c2ccc(F)cc2)N1C (stereo not drawn), which activation is on record?
Its activation is inactive: -0.05%.

With O=C(O)C(=O)c1ccc(N(CCCl)CCCl)cc1 as the molecule, how does the activation read?
The activation was inactive: 2.38%.

For O=C(Nc1ccncc1[N+](=O)[O-])c1ccc([N+](=O)[O-])cc1[N+](=O)[O-], which activation is on record?
The activation was inactive: -0.74%.

How did the activation turn out when O=C(COc1ccccc1)OC1CN2CCC1CC2 (stereo not drawn) was run?
Its activation is inactive: 2.37%.

How did the activation turn out when CCOC(=O)Nc1cccc([As](=O)(O)O)c1 was run?
Its activation is inactive: 0.34%.

For O=P(Nc1ccccn1)(c1cccc2ccccc12)c1cccc2ccccc12, which activation is on record?
The activation was inactive: 31.1%.

How did the activation turn out when Cc1cc(SC(NC=O)C(Cl)(Cl)Cl)ncn1 (stereo not drawn) was run?
Its activation is inactive: 0.84%.

O=[N+]([O-])c1ccc(Nc2ccc(Oc3ccc([N+](=O)[O-])cc3[N+](=O)[O-])cc2)c([N+](=O)[O-])c1 was tested. Which activation did it give?
The activation was inactive: -0.55%.

With CCOC(=O)Nc1ccc([As](=O)(O)O)c(O)c1 as the molecule, how does the activation read?
Its activation is inactive: 3.16%.

O=C(O)C(O)c1ccc(N(CCCl)CCCl)cc1 (stereo not drawn) was tested. Which activation did it give?
Its activation is inactive: 2.44%.

How did the activation turn out when CC1CCNP(=O)(N(CCCl)CCCl)O1 (stereo not drawn) was run?
The activation was inactive: -2.04%.

With COP(=O)(OC)N1CC1c1ccccc1 (stereo not drawn) as the molecule, how does the activation read?
Its activation is inactive: 1.96%.

Cc1cc(SC(NC(=O)c2ccccc2)C(Cl)(Cl)Cl)nc(C(C)C)n1 (stereo not drawn) was tested. Which activation did it give?
The activation was inactive: -1.51%.

CCCCOc1ccc(C(=O)NCC2(N3CCCCC3)CCCCC2)cc1OC was tested. Which activation did it give?
The activation was active: 57.1%.

O=P1(Nc2ncccn2)COc2ccccc2OC1 was tested. Which activation did it give?
The activation was inactive: 0.77%.

How did the activation turn out when Nc1cccc([As](=O)(O)c2ccccc2)c1 was run?
Its activation is inactive: -3.12%.

With Cc1ccc(OCC(=O)OC2CN3CCC2CC3)cc1 (stereo not drawn) as the molecule, how does the activation read?
The activation was inactive: -1.46%.
